# System: p53+/+ tumor cells
# Test: Selective killing of p53+/+ tumor cells
# Assay type: cell-based
smiles,measurement,value
CC(C)C[C@@H](NC(=O)[C@@H](CC(C)C)NC(=O)[C@@H](CCCCN)NC(=O)[C@@H](CCC(=O)O)NC(=O)[C@@H](CC(C)C)NC(=O)[C@@H](CC(N)=O)NC(=O)[C@@H](C)NC(=O)[C@@H](Cc1ccc(O)cc1)NC(=O)[C@@H](Cc1c[nH]c2ccccc12)NC(=O)[C@@H](CC(N)=O)NC(=O)[C@H](N)[C@H](C)O)C(=O)N[C@H](CCCNC(=N)N)C(=O)O [D-PMI-8],killing of p53+/+ tumor cells,selectively kill p53^+/+ tumor cells in a concentration dependent manner

# — patent US8343760B2, “p53 activator peptides” (University of Maryland, Baltimore, priority 2008, dated 2013)
